Data as given in PubChem BioAssay AID652010 (The Scripps Research Institute Molecular Screening Center, 2013).
The entries are a selection whose mix differs from that of the whole data set. Active and inactive are the calls of the source.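 Rule for the calls: active = inhibition above the mean over all tested compounds plus 3 SD (cut at about 3.6% in these data); inactive = the rest.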

Experiment: relief of DAX-1 repression of SF-1 activity – cell-based, luminescence, SF-1 (NR5A1), full-length DAX-1, primary screen (AID 652010);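 note: 0% = DAX-1 cells with DMSO and 100% = cells lacking DAX-1 with DMSO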
Conditions: HEK293T StAR-luciferase reporter, SF-1/DAX-1 repression relief; at 6.8 µM; stronger effect = higher value

SMILES	inhibition
Cc1ccc(OP(=O)(Nc2ccccn2)Oc2ccc(C)cc2)cc1	inactive: -0.57%
CC(=O)NC(SC(=S)N(CC(C)C)CC(C)C)C(Cl)(Cl)Cl (stereo unspecified)	inactive: 0.44%
COC(=O)c1cc2c(s1)N=C(c1ccccc1)N(C)P2(=O)N1CCOCC1 (stereo unspecified)	inactive: -0.2%
CCC(=O)N1C2C3N(C(=O)CC)C1C1N(C(=O)CC)C(C(N1C(=O)CC)N3C(=O)CC)N2C(=O)CC	inactive: -0.21%
O=C(OC1CN2CCC1CC2)c1ccccc1 (stereo unspecified)	inactive: -0.57%
CN(C)C(=O)Oc1noc2ccccc12	inactive: -0.11%
O=c1c2cc([N+](=O)[O-])ccc2[nH]c2c([N+](=O)[O-])cc([N+](=O)[O-])cc12	inactive: -1.18%
Cc1ccccc1OP(=O)(Nc1ccccn1)Oc1ccccc1C	inactive: -0.26%
CC(NC(=O)COC(=O)C(O)(c1ccccc1)c1ccccc1)c1ccccc1 (stereo unspecified)	inactive: -0.43%
CCNC(=S)/N=C(\N)N[N+](=O)[O-]	inactive: 0%
O=C(NC1CCS(=O)(=O)C1)NP(=S)(Oc1ccccc1)Oc1ccccc1 (stereo unspecified)	inactive: -0.03%
Cc1ccc(NP(=O)(Oc2cccc(C)c2)Oc2cccc(C)c2)nc1	inactive: 0.01%
c1ccc(-c2nn[nH]n2)c(-c2nn[nH]n2)c1	inactive: -0.43%
O=P1(N(CCCl)CCCl)OCCC2CCCCN21 (stereo unspecified)	inactive: -0.35%
COC(=O)C1(C)COP(=O)(NCc2ccccc2)OC1 (stereo unspecified)	inactive: -0.26%
N#C/C(=C\c1ccc(N(CCBr)CCBr)cc1)C(N)=O	inactive: -0.4%
CC(=O)c1ccc(N2CC2c2ccncc2)cc1 (stereo unspecified)	inactive: 0.09%
C[C@@H]1C=CCP(=O)(Oc2ccccc2)O1 (stereo partly specified)	inactive: 0.68%
C[C@H]1OP(=O)(Oc2ccccc2)C[C@@H]2O[C@@H]21 (stereo partly specified)	inactive: 0.16%
Cc1ccccc1CN(C)C(=O)COC(=O)C(O)(c1ccccc1)c1ccccc1	inactive: -0.75%
CC(=O)Nc1ccc(Oc2c([N+](=O)[O-])cc([N+](=O)[O-])cc2[N+](=O)[O-])cc1	inactive: 0.8%
CC(=O)Nc1ccc([As](=O)(O)O)c(O)c1	inactive: 0.19%
CCOc1ccc(C2=NCC(CBr)S2)cc1 (stereo unspecified)	inactive: 0.18%
O=P1(Nc2nc3ccc(Cl)cc3s2)COc2ccccc2O1 (stereo unspecified)	inactive: 0.78%
CCc1cc(O)c([N+](=O)[O-])c(C)c1[N+](=O)[O-]	inactive: -0.31%
CC(C)(C)C(=O)NC(Sc1ccccc1)C(Cl)(Cl)Cl (stereo unspecified)	inactive: 0.19%

SMILES	inhibition
CC(C)C(=O)NC(Sc1ccccc1)C(Cl)(Cl)Cl (stereo unspecified)	inactive: 0.14%
O=P(Nc1nccs1)(c1ccccc1)c1ccccc1	inactive: -0.6%
c1nnnn1CCn1cnnn1	inactive: -0.17%
O=[N+]([O-])c1ncn(CCn2cnc([N+](=O)[O-])n2)n1	inactive: -0.23%
CC(=O)NC(SC(=S)N(C)C)C(Cl)(Cl)Cl (stereo unspecified)	inactive: -0.53%
O=[As](O)(c1ccccc1)c1ccc(O)cc1	inactive: 0.65%
Nc1ccc([As](=O)(O)c2ccc([N+](=O)[O-])cc2)cc1	inactive: -0.05%
C(Cc1nn[nH]n1)Cc1nn[nH]n1	inactive: 0.53%
C/C(N)=N\P(=O)(OCc1ccccc1)OCc1ccccc1	inactive: 0.26%
O=C(OC1CN2CCC1CC2)c1cccc(Cl)c1 (stereo unspecified)	inactive: 0.18%
Nc1ccc(CCCCOc2ccccc2)cc1	inactive: 0.01%
COc1ccc(N)c([N+](=O)[O-])c1[N+](=O)[O-]	inactive: -0.68%
O=P(Nc1ccccn1)(c1ccc(Br)cc1)c1ccc(Br)cc1	inactive: 0.1%
CN(C)C1(CNC(=O)c2ccc(Cl)c(S(N)(=O)=O)c2)CCCCC1	inactive: -0.1%
C[C@H]1OP(=O)(Oc2ccccc2)[C@H](O)[C@H](O)[C@H]1N=[N+]=[N-] (stereo partly specified)	inactive: 0.17%
O=P(Nc1nc2ccccc2s1)(c1ccccc1)c1ccccc1	inactive: -0.1%
CC(C)(C)C(=O)NC(Sc1ccncn1)C(Cl)(Cl)Cl (stereo unspecified)	inactive: 0.29%
O=[N+]([O-])c1ncn(CCn2ncnc2[N+](=O)[O-])n1	inactive: -0.19%
O=[N+]([O-])c1cccc(NC2=NCC(CBr)S2)c1 (stereo unspecified)	inactive: -0.01%
COC(=O)C1(C)COP(=O)(Nc2ccccc2)OC1 (stereo unspecified)	inactive: -0.75%
O=C(O)CNc1ccc([As](=O)(O)O)cc1	inactive: -0.17%
O=P1(N(CCCl)CCCl)OCCCS1 (stereo unspecified)	inactive: -0.1%
O=C(Nc1cc([As](=O)(O)O)ccc1O)c1ccccc1	inactive: 0.07%
C[N+]1=C2C=CC=CC=C2SC12C([N+](=O)[O-])=CC([N+](=O)[O-])=C[C-]2[N+](=O)[O-] (stereo unspecified)	inactive: -2.05%
Nc1ccc([As](=O)(O)c2ccc(N)cc2)cc1	inactive: -0.11%
CCN(/C(=N/P(=O)(N1CCOCC1)N1CCOCC1)N1CCOCC1)c1ccc(OC)cc1	inactive: -0.39%

SMILES	inhibition
CN(C)C(=O)OCCc1n(C)cc[n+]1C	inactive: 0.71%
CC(C)=N/N=C(\N)N[N+](=O)[O-]	inactive: -0.09%
CC(C)c1nc(Nc2ccccc2)n(P(=O)(N(C)C)N(C)C)n1	inactive: -0.12%
c1cc(-c2nn[nH]n2)ccc1-c1nn[nH]n1	inactive: -0.69%
CC1CCN(C(=O)Oc2c(Cl)cc(Cl)c3cccnc23)CC1	inactive: -0.85%
COc1ccc(C2=NCC(CBr)S2)cc1 (stereo unspecified)	inactive: -0.12%
O=[N+]([O-])c1cccc2n[nH]nc12	inactive: -0.38%
CC(=O)N1C2C3N(C(C)=O)C1C1N(C(C)=O)C(C(N1C(C)=O)N3C(C)=O)N2C(C)=O	inactive: 0.21%
CCc1nc2c(n1)c1c(non1O)c1c2no[n+]1[O-]	inactive: -1.81%
O=[N+]([O-])c1cc([N+](=O)[O-])c(CCNc2ccccc2)c([N+](=O)[O-])c1	inactive: -2.48%
Cc1ccc(NP(=O)(Oc2ccccc2)Oc2ccccc2)nc1	inactive: -0.31%
CC(C)CC(=O)NC(Sc1ccc(Cl)cc1)C(Cl)(Cl)Cl (stereo unspecified)	inactive: 1.49%
Nc1cc(N)c2nonc2c1[N+](=O)[O-]	inactive: -0.61%
O=C(NC(Sc1ccncn1)C(Cl)(Cl)Cl)c1ccccc1 (stereo unspecified)	inactive: -0.4%
Oc1ccccc1CNc1ccccn1	inactive: -0.05%
NC(=O)c1cc([N+](=O)[O-])cc([N+](=O)[O-])c1N	inactive: -0.25%
Cc1ccc(N/C(=N/P(=O)(N2CCOCC2)N2CCOCC2)N2CCOCC2)cc1	inactive: -0.33%
CN(C(=O)Cc1ccc(Cl)c(Cl)c1)[C@H]1CCCC[C@H]1N1CCCC1	inactive: 0.45%
Cc1ccc(OP(=O)(Nc2nccs2)Oc2ccc(C)cc2)cc1	inactive: 0.06%
COc1ccccc1OP(=O)(Nc1ccc(C)cn1)Oc1ccccc1OC	inactive: 0.49%
Clc1ccc(Cl)c(NC2=NCC(CBr)S2)c1 (stereo unspecified)	inactive: 0.22%
CN1CCCC(OC(=O)C(c2ccccc2)c2ccccc2)C1 (stereo unspecified)	inactive: -0.03%
CCN(N=Nc1nonc1N)c1nonc1N	inactive: -0.21%
CN(C(=O)Cc1ccccc1)C1CC[C@@]2(CCCO2)C[C@@H]1N1CCCC1 (stereo partly specified)	inactive: 0.19%
Nc1cccc2ccc([As](=O)(O)O)cc12	inactive: 0.33%
CCCC1OP(N)(=O)OCC1CC (stereo unspecified)	inactive: 0.26%

SMILES	inhibition
O=C(O)c1ccccc1[As](=O)(O)O	inactive: 0.39%
CC(=O)Nc1ccc([As](=O)(O)O)cc1	inactive: -0.25%
CN(C)P(=O)(N(C)C)n1c(Nc2ccccc2)nnc1-c1ccccc1	inactive: 1.3%
O=P(Nc1nc2ccc(Cl)cc2s1)(c1ccccc1)c1ccccc1	inactive: 0.03%
Cc1ccc(NP(=O)(Oc2ccccc2F)Oc2ccccc2F)nc1	inactive: 0.18%
CN(C(=O)Cc1ccc(Cl)c(Cl)c1)[C@H]1CCCC[C@@H]1N1CCCC1	inactive: -0.44%
CCOP(=O)(Nc1ccccc1)OCC	inactive: -0.04%
Cc1cc(SC(NC(=O)c2ccc(F)cc2)C(Cl)(Cl)Cl)ncn1 (stereo unspecified)	inactive: 0.24%
CCn1c(=O)n(C2CCN(CC3CCCCCCC3)C[C@H]2CO)c2ccccc21 (stereo partly specified)	inactive: 0.67%
CC(C)c1ccc(OP(=O)(Nc2ccccn2)Oc2ccccc2F)cc1 (stereo unspecified)	inactive: 0.44%
COC(=O)C1(C)COP(=O)(N2CCCCCC2)OC1 (stereo unspecified)	inactive: -0.19%
ClCCSc1nnc(-c2cccnc2)o1	inactive: 0.74%
O=C(OC1CN2CCC1CC2)c1cccc2[nH]cnc12 (stereo unspecified)	inactive: 1.04%
CCN(CC)C(=S)SC(NC=O)C(Cl)(Cl)Cl (stereo unspecified)	inactive: 0.72%
CC(C)NC(=O)NP(=O)(Oc1ccccc1)Oc1ccccc1	inactive: -0.12%
COc1cc(C(=O)NCC2(N3CCOCC3)CCCCC2)ccc1OCC(C)C	inactive: 2.21%
O=[N+]([O-])c1ccc(-c2cc([N+](=O)[O-])c(O)c([N+](=O)[O-])c2)cc1	inactive: -0.62%
O=[As](O)(c1ccc(O)cc1)c1ccccc1O	inactive: -0.14%
C[As](=O)(O)c1cccc(C(=O)O)c1	inactive: -0.03%
Cc1ccc2nc3c(c(C)c2c1)CC(C(Cl)Cl)S3 (stereo unspecified)	inactive: 0.7%
[N-]=[N+]=NC1CCCCC1NC(=O)c1cc([N+](=O)[O-])cc([N+](=O)[O-])c1 (stereo unspecified)	inactive: 0.81%
Cc1ccc(OP(=O)(Nc2ccc([N+](=O)[O-])cn2)Oc2ccc(C)cc2)cc1	inactive: 1.22%
COc1ccc(N/C(=N/P(=O)(N2CCOCC2)N2CCOCC2)N2CCOCC2)cc1	inactive: -0.17%
